# OPERA 2.9 data: vapor pressure values

Source: data files of OPERA 2.9 (Mansouri et al.), github.com/kmansouri/OPERA.

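The OPERA project collected these measurements from public sources as training and test data for property models. One number stands for a compound and property, with no spread given. How each value was measured is not recorded, so precision varies. The measured form (salt, isomer or mixture) is not always the one drawn. Some upstream entries may be estimates or bounds without being marked so.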

Vapor pressure is log10 of mmHg; the set covers 15 to 30 °C, mostly 20 to 25 °C.
"n/a" marks a cell with nothing listed here.

| SMILES | name | vapor pressure (log10 mmHg) |
|---|---|---|
| O=C(CCc1ccc(O)cc1)c1c(O)cc(O)cc1O[C@@H]1O[C@H](CO)[C@@H](O)[C@H](O)[C@H]1O | Phlorizin | -9.82 |
| CC[C@@]12CC[C@H]3C4=C(CC[C@@H]3[C@H]1CC[C@H]2O)CC(OC)=CC4 (racemic) | n/a | -7.444 |
| Cc1c(C)c2c(c(C)c1O)CCC(C)(CCCC(C)CCCC(C)CCCC(C)C)O2 (configuration not stated) | alpha-Tocopherol | -8.368 |
| CCCCCCCCC(Cl)CCCC (configuration not stated) | 5-Chlorotridecane | -2.504 |
| Clc1ccc(-c2cccc(Cl)c2Cl)cc1 | 2,3,4'-Trichlorobiphenyl | -3.745 |
| CCCCOCCOCCOCc1cc2c(cc1CCC)OCO2 | Piperonyl butoxide | -6.912 |
| CCCCCCCCCCCC(=O)NCCO | Laurylethanolamide | -4.18 |
| COc1cc([N+](=O)[O-])c(OC)cc1Cl | 4-Chloro-2,5-dimethoxynitrobenzene | -5.593 |
| C=C(C)C(=O)OCCCCCC | n-Hexyl methacrylate | -0.745 |
| CCO[Si](CCCC1CC(=O)OC1=O)(OCC)OCC (configuration not stated) | 2,5-Furandione, dihydro-3-[3-(triethoxysilyl)propyl]- | -3.011 |
| N#Cc1ccc(N=C(N)N)cc1 | N''-(4-Cyanophenyl)guanidine | -9.218 |
| CCCCC/C=C\C/C=C\C/C=C\C/C=C\CCCC(=O)OCC | 5,8,11,14-Eicosatetraenoic acid, ethyl ester | -6.165 |
| C[N+]1(CC(=O)N/N=C/c2ccccc2O)CCOCC1.[Cl-] | n/a | -7.727 |
| CCCC1CCC(C2CCC(c3ccc(C)cc3)CC2)CC1.CCCC1CCC(C2CCC(c3ccc(C)cc3)CC2)CC1 (configuration not stated) | n/a | -5.3 |
| c1ccc2sc(SSc3nc4ccccc4s3)nc2c1 | 2,2'-Dithiobisbenzothiazole | -9.349 |
| Cc1cnc(C(=O)NCCc2ccc(S(N)(=O)=O)cc2)cn1 | n/a | -8.126 |
| CC(=O)Nc1cc(NS(=O)(=O)C(F)(F)F)c(C)cc1C.OCCNCCO | Mefluidide-diolamine | -7 |
| Clc1ccc(-c2cccc(Cl)c2Cl)cc1Cl | n/a | -5.907 |
| CC(C)OC(=O)[C@H](C)OC(=O)C(C)(C)C | (S)-1-Isopropoxy-1-oxo-2-propanyl pivalate | -0.497 |
| C=CC(=O)N1CCOCC1 | 4-(1-Oxo-2-propenyl)-morpholine | -1.91 |
| Clc1cc(Cl)cc(-c2cc(Cl)c(Cl)cc2Cl)c1 | 2,3',4,5,5'-Pentachlorobiphenyl | -4.975 |
| COC(=O)c1nccnc1N | Methyl 3-aminopyrazinecarboxylate | -4.309 |
| CC(=O)CC(=O)Nc1ccc(NC(=O)CC(C)=O)cc1 | Butanamide, N,N'-1,4-phenylenebis[3-oxo- | -10.73 |
| CCO[Si](CCCN=C=O)(OCC)OCC | (3-Isocyanatopropyl)triethoxysilane | -1.523 |
| CC(=O)Nc1ccc(S(N)(=O)=O)cc1 | 4'-Sulfamylacetanilide | -7.094 |
| C=C[C@]1(C)CC[C@@H](C(C)(C)O)C[C@H]1C(=C)C | n/a | -1.71 |
| FC(F)OC(Cl)C(F)(F)F (configuration not stated) | Isoflurane | 2.449 |
| CCCCCC1CCC(c2ccc(OCC)c(F)c2F)CC1 (configuration not stated) | 1-Ethoxy-2,3-difluoro-4-(4-pentylcyclohexyl)benzene | -5.516 |
| CCCCC(=O)OCC(=O)[C@H]1[C@H](C)C[C@H]2[C@@H]3C[C@H](F)C4=CC(=O)C=C[C@]4(C)[C@@]34O[C@H]4C[C@@]21C | n/a | -10.36 |
| CC(C)C1CCC(O)CC1 (configuration not stated) | 4-Isopropylcyclohexanol | -1.388 |
| Cc1cc(C)cc(N)c1 | 3,5-Dimethylaniline | -0.011 |
| O=C1CCCCCCCCCCCCCCC1 | Cyclohexadecanone | -4.091 |
| NS(=O)(=O)CCN1C(=O)c2ccccc2C1=O | 2-Phthalimidoethanesulfonamide | -10.37 |
| C=CC(=O)OCCCCCCCCCCCC | Lauryl acrylate | -4.124 |
| C=C(C)C(=O)NCOC | 2-Propenamide, N-(methoxymethyl)-2-methyl- | -1.624 |
| CCCCCC1COCCC1OC(C)=O (configuration not stated) | Tetrahydro-3-pentyl-2H-pyran-4-yl acetate | -2.435 |
| CCCCCCCCSCc1cc(C)c(O)c(CSCCCCCCCC)c1 | 2-Methyl-4,6-bis[(octylthio)methyl]phenol | -6.824 |
| CCC[C@H]1CC[C@H](c2ccc(-c3ccc(B(O)O)c(F)c3)cc2)CC1 | n/a | -5.782 |
| C=CCCCCO | 5-Hexen-1-ol | 1.519 |
| Clc1cc(Cl)cc(-c2cc(Cl)c(Cl)c(Cl)c2)c1 | 3,3',4,5,5'-Pentachlorobiphenyl | -5.235 |
| CCCCCCCCCCCCCC[N+](C)(C)Cc1ccccc1.[Cl-] | Tetradecyldimethylbenzylammonium chloride | -5.87 |
| Cc1ccc(S(=O)(=O)c2ccc(O)c(O)c2)cc1 | 1,2-Benzenediol, 4-[(4-methylphenyl)sulfonyl]- | -9.678 |
| Cc1ccc(I)cc1Cc1ccc(-c2ccc(F)cc2)s1 | n/a | -7.082 |
| C=CCOCC(O)COCCCC (configuration not stated) | 1-Butoxy-3-[(prop-2-en-1-yl)oxy]propan-2-ol | -2.116 |
| N=C(N)S(=O)O | Amino(imino)methanesulfinic acid | -6.013 |
| CC(=O)N1CCN(c2ccc(O)cc2)CC1 | 4-(4-Acetylpiperazin-4-yl)phenol | -9.907 |
| O=C([O-])C(O)C(O)C(=O)[O-].[Ca+2] (configuration not stated) | Calcium tartrate | -6.678 |
| CCCCCCCCCCCCSCCC(=O)OCC(COC(=O)CCSCCCCCCCCCCCC)(COC(=O)CCSCCCCCCCCCCCC)COC(=O)CCSCCCCCCCCCCCC | n/a | -9.811 |
| COCCCCC(=O)c1ccc(C(F)(F)F)cc1 | Fluvoxketone | -5.98 |
| CC(=O)O[C@H]1CC[C@@]2(C)C(=CC[C@H]3[C@@H]4CC[C@H]([C@H](C)CCCC(C)C)[C@@]4(C)CC[C@@H]32)C1 | Cholest-5-en-3-ol (3.beta.)-, 3-acetate | -9.218 |
| CCCCOC(=O)c1ccc(C(=O)OCCCC)cc1 | 1,4-Dibutyl benzene-1,4-dicarboxylate | -3.545 |
| CC(=O)OCCOc1ccc(C(C)(C)c2ccc(OCCOC(C)=O)cc2)cc1 | n/a | -9.796 |
| CC(C)c1cc(C(C)C)cc(C(C)C)c1 | 1,3,5-Triisopropylbenzene | -2.319 |
| CC(CC(=O)NCCO)CC(C)(C)C (configuration not stated) | n/a | -5.846 |
| O=C1OCC(CO)O1 (configuration not stated) | 1,3-Dioxolan-2-one, 4-(hydroxymethyl)- | -2.156 |

Repeated from above, the 8 entries with the highest vapor pressure:

| SMILES | name | vapor pressure (log10 mmHg) |
|---|---|---|
| FC(F)OC(Cl)C(F)(F)F (configuration not stated) | Isoflurane | 2.449 |
| C=CCCCCO | 5-Hexen-1-ol | 1.519 |
| Cc1cc(C)cc(N)c1 | 3,5-Dimethylaniline | -0.011 |
| CC(C)OC(=O)[C@H](C)OC(=O)C(C)(C)C | (S)-1-Isopropoxy-1-oxo-2-propanyl pivalate | -0.497 |
| C=C(C)C(=O)OCCCCCC | n-Hexyl methacrylate | -0.745 |
| CC(C)C1CCC(O)CC1 (configuration not stated) | 4-Isopropylcyclohexanol | -1.388 |
| CCO[Si](CCCN=C=O)(OCC)OCC | (3-Isocyanatopropyl)triethoxysilane | -1.523 |
| C=C(C)C(=O)NCOC | 2-Propenamide, N-(methoxymethyl)-2-methyl- | -1.624 |